Experimental findings from ChEMBL document CHEMBL3627660, “Tetrafluorophenoxymethyl ketone cruzain inhibitors with improved pharmacokinetic properties as therapeutic leads for Chagas' disease” (Bioorg Med Chem Lett, 2015) are described below.

Amino acid sequences for entries named in this document (tags omitted). A change or cut given only in a name is not applied to a line headed by its entry.
UniProt P25779: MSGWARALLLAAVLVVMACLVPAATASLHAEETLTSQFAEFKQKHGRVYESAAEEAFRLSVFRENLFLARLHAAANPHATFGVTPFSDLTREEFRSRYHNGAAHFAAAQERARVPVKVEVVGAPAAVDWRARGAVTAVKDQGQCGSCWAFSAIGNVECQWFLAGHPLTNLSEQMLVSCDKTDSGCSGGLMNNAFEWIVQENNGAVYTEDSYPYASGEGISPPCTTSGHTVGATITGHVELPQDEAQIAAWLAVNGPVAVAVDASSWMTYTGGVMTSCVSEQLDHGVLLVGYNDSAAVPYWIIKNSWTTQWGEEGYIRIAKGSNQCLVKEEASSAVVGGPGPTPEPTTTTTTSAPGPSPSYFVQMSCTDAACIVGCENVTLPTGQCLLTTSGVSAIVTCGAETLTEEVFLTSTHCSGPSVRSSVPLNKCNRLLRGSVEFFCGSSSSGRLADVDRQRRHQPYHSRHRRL

The assay has as its target Cruzipain (Trypanosoma cruzi, UniProt P25779). Put plainly: Inhibition of Trypanosoma cruzi recombinant cruzain using Z-FR-AMC as substrate after 5 mins by fluorescence assay.

Broadly, the IC50 is the point on the concentration scale where inhibition reaches its midpoint.

Regarding `CCCCC(C(=O)COc1c(F)c(F)cc(F)c1F)n1cc([C@@](C)(NCc2ccc3ncccc3c2)C(C)C)nn1` (stereo partly specified), the IC50 turned out to be 370 nM.
